Patent US20060263368A1, “Targeted chimeric molecules for cancer therapy” (Research Development Foundation, priority 2005, published 2006)

What was measured:
SKBR-3-LP cells = assay: Western blot of TNF receptor expression; type: cell-based, human
Experimental: SKBR-3 cells were grown in McCoy's 5A modified medium (DMEM, Life Technologies Inc., Rockville, Md.) supplemented with 10% heat-inactivated fetal bovine serum (FBS), 2 mM L-glutamine, 100 units/ml penicillin and 100 μg/ml streptomycin. […] The L3.6pl human pancreatic cancer cell line was kindly provided by Dr. Killian (M.D. Anderson Cancer Center, Houston, Tex.) and was grown in Dulbecco's modified Eagle's medium (DMEM, Life Technologies Inc.) supplemented with 10% heat-inactivated FBS, 100 units/ml penicillin and 100 μg/ml streptomycin.
After treatment, cells were washed twice with phosphate buffered saline (PBS) and lysed on ice for 20 min in 0.3 ml of lysis buffer (10 mM Tris-HCl, pH 8, 60 mM KCl, 1 mM EDTA, 1 mM DTT, 0.2% NP-40). Cell lysates (50 μg) were fractionated by 8-15% SDS-PAGE and electrophoretically transferred to Immobilon-P nitrocellulose membranes (Schleicher & Schuell Inc., Keene, N.H.). […] The intensity of the bands was quantified using Histogram.

A375-M and AAB-527 cells = assay: Western blot of signaling and PARP cleavage in melanoma cells; type: cell-based, human
[1] = Pharmacokinetics of 125I-labeled proteins in mice; type: in vivo, BALB/c mice; settings: i.v.
AsPc-1 = assay: In vitro cytotoxicity and combination study, crystal violet; type: cell-based, human; settings: 72 hr of exposure
Description: (§1) If CI near to 1 indicates additive effect (ADD), CI>1 indicates antagonism (ANT), CI<1 indicates synergism (SYN).

Capan-2 = assay: as above; type: cell-based, human; settings: 72 hr of exposure
Description: as §1

L3.6pl = assay: as above; type: cell-based, human; settings: 72 hr of exposure
Description: as §1

Capan-1 = assay: as above; type: cell-based, human; settings: 72 hr of exposure
Description: as §1

SKBR3-HP cells = assay: Neutralization of cytotoxicity by anti-TNFR1 antibody; type: cell-based, human; settings: 25 μg/ml antibody
[2] = test system: AsPc-1, Capan-1, Capan-2, and L3.6pl; settings: across the four cell lines
SKBR-3/H = assay: In vitro cytotoxicity, XTT; type: cell-based, human
Experimental: SKBR-3 cells were grown in McCoy's 5A modified medium, supplemented with 10% heat-inactivated fetal bovine serum (FBS), 2 mM L-glutamine, 100 units/ml penicillin and 100 μg/ml streptomycin.
After 72 hr, 50 μl of XTT labeling mixture (Roche) was added to each well, after which the cells incubated for another 4 hr. The spectrophotometric absorbance was measured at 450 nm using an ELISA reader (Bio-Tek Instruments, Inc., Winooski, Vt.).

A375-M Cells = assay: Neutralization of cytotoxicity by anti-TNFR1 antibody; type: cell-based, human; settings: 25 μg/ml antibody
[3] = mice, Kuroda et al., 2000; cited from earlier work
Human neuroglioma H4 = assay: Cytotoxicity of scFvMEL/TNF vs TNF, crystal violet; type: cell-based; settings: 72 h treatment; gp240 (−), TNF-resistant
[4] = test system: TNF-resistant AAB527 cells; assay: cDNA microarray analysis; settings: 24 h, 2500 genes
[5] = test system: L-929 murine fibroblast cells; assay: TNF biologic activity, cytotoxicity in L-929 cells; type: cell-based
Description: The expression and purification of TNF were the same as that of the fusion protein scFvMEL/TNF. […] The rHuTNFα from Roche Molecular Biochemicals (Indianapolis, Ind.) was used as a standard. The biological activity of the final purified huTNF was 2×10^7 U/mg protein.

[6] = test system: HER-2-overexpressing SKBR-3/H cells; assay: Western blot, DNA fragmentation, TUNEL: signal transduction effects; type: cell-based, human; set-up: key to Akt / Caspase-8 cleavage / Caspase-3 cleavage / PARP cleavage / DNA fragmentation / TRADD / TRAF-2: NE represents no effect; settings: 200 nM
Experimental: Apoptosis was detected by DNA fragmentation and TUNEL assay. […] After 24 hr and 48 hr, cells were washed with PBS, resuspended in a DNA extraction buffer containing 5 mM Tris-HCl, pH 8, 50 mM EDTA, 10 μg/ml RNAse, and 0.25% SDS and then incubated for 1 hr at 37° C. To remove protein, resuspended cell lysates were treated with 100 μg/ml proteinase K for 3 hr at 50° C. DNA was extracted using phenol and chloroform followed by ethanol precipitation. The genomic DNA was resuspended in Tris-EDTA (pH 8) and was fractionated by electrophoresis on a 1% agarose gel containing ethidium bromide.
The cells were washed with PBS, permeabilized (0.1% Triton X-100, 0.1% sodium citrate), and then fixed in 4% paraformaldehyde. Fixed cells were stained with in situ cell death detection kit (Roche). Cells undergoing apoptosis were identified by fluorescence microscopy.
After treatment, cells were washed twice with phosphate buffered saline (PBS) and lysed on ice for 20 min in 0.3 ml of lysis buffer (10 mM Tris-HCl, pH 8, 60 mM KCl, 1 mM EDTA, 1 mM DTT, 0.2% NP-40). Cell lysates (50 μg) were fractionated by 8-15% SDS-PAGE and electrophoretically transferred to Immobilon-P nitrocellulose membranes (Schleicher & Schuell Inc., Keene, N.H.). Membranes were blocked 2 hrs in Tris-buffered saline (TBS) containing 3% bovine serum albumin and then probed with various antibodies (monoclonal anti-HER-2/neu Ab, rabbit polyclonal anti-TNFR1 Ab, rabbit polyclonal anti-TNFR2 Ab, rabbit polyclonal anti-caspase-8 Ab, monoclonal anti-caspase-3 Ab, monoclonal anti-PARP Ab, rabbit polyclonal anti-TRADD Ab, rabbit polyclonal anti-TRAF2 Ab, rabbit polyclonal anti-IκB-α Ab, rabbit polyclonal anti-phospho Akt Ab, and rabbit polyclonal anti-Akt Ab). Goat anti-mouse/goat anti-rabbit or swain anti-goat antibodies conjugated with horseradish peroxidase (Bio-Rad Laboratories, Hercules, Calif.) were used to visualize immunoreactive proteins at a 1:4000 dilution using ECL detection reagent (Amersham Pharmacia Biotech Inc., Piscataway, N.J.).

Herceptin: humanized anti-HER-2/neu antibody [reference compound]
TNF-R1 expression, increase compared to controls (SKBR-3-LP cells): 1.8 fold

TNF: Tumor necrosis factor, recombinant human TNF-alpha, cytotoxic polypeptide of 17 kDa
PARP cleavage in TNF-resistant AAB-527 (A375-M and AAB-527 cells; 24 h, TNF up to 200 nM, scFvMEL/TNF 20 nM): no PARP cleavage | SAPK/JNK pathway activation (A375-M and AAB-527 cells; A375-M and AAB-527): rapidly stimulated SAPK/JNK activation | C × t: the area under the concentration curve [1]: 3.51 μ Ci/ml × min | Plasma Half Life (α) [1]: 0.45 h | Plasma Half Life (β) [1]: 2.68 h | Vd: volume of distribution [1]: 3.9 mL and 3.95 mL | area under the concentration curve (c×t) [1]: 3.5 μCiml-1 min | half-life, α-phase [1]: 0.452 h | half-life, β-phase [1]: 2.7 h | IC50 (AsPc-1): > 1.6 µM | IC50 (Capan-2): > 1.6 µM | IC50 (L3.6pl): > 1.6 µM | IC50 (Capan-1): > 1.6 µM | neutralization of cytotoxicity by anti-TNFR1 (SKBR3-HP cells): 100% | IC50 [2]: > 1.6 µM | IC50 (SKBR-3/H; 72 hr, read-out: IC50): > 6 µM | IC50 (SKBR-3/H; read-out: IC50 (completely resistant at doses up to)): > 6 µM | neutralization of cytotoxicity by anti-TNFR1 (A375-M Cells): 100% | MTD reported for TNF itself [3]: 0.3 mg/kg | IC50 (Human neuroglioma H4): > 5 µM | genes down regulated by both scFvMEL/TNF and TNF [4]: 67 genes | genes up regulated by both scFvMEL/TNF and TNF [4]: 63 genes | biological activity [5]: 2×10^7 U/mg protein | specific activity [5]: 26.7×10^6 units/mg protein | Akt [6]: NE | Caspase-3 cleavage [6]: NE | Caspase-8 cleavage [6]: NE | DNA fragmentation [6]: NE | IκB-α [6]: ↓ | PARP cleavage [6]: NE | TRADD [6]: NE | TRAF-2 [6]: NE | p-Akt [6]: ↑

Values joined by “and” are separate entries in the source; they are usually repeats but may differ in a detail not shown here. Identical values can stand only once. Like-named read-outs stand apart in the source and are kept apart here.
